The numbers were not newly measured in US6479509B1, “Method of promoting smoking cessation” (priority 2000, dated 2002), which cites them from elsewhere.

By UniProt entry, the sequences of proteins in these tests, tags left out.
UniProt P23977, whole entry: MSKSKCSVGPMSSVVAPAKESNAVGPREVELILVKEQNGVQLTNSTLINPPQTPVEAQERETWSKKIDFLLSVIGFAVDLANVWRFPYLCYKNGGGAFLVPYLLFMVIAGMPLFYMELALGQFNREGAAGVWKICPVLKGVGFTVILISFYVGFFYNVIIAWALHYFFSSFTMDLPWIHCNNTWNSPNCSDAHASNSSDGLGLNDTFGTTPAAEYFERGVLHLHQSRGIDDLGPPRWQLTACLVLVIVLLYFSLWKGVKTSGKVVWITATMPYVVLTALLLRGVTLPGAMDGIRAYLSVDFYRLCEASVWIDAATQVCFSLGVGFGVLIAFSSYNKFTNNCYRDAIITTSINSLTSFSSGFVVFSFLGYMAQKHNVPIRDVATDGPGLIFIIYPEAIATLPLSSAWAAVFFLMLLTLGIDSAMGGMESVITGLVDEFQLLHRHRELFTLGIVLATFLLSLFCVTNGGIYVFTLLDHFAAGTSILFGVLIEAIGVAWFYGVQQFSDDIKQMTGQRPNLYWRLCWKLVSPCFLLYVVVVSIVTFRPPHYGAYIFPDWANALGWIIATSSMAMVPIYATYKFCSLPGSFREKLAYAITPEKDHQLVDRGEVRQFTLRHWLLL

In the series the target is T1, Dopamine transporter (Rattus norvegicus, UniProt P23977).
T1 construct: from tissue; host or cells: brain
To be noted: brain; read-out: Dopamine [3H]WIN 35,428 IC50; cited from earlier work.

As to `COC(=O)[C@H]1[C@@H](c2ccc(Cl)cc2)C[C@H]2CC[C@H]1N2C` [RTI-31], the IC50 is 1.12 nM.
